# Results from PubChem BioAssay AID602194 (The Scripps Research Institute Molecular Screening Center, 2012).
# By UniProt entry, the sequences of proteins in these tests, tags left out.
# UniProt P35372, whole entry, looked up: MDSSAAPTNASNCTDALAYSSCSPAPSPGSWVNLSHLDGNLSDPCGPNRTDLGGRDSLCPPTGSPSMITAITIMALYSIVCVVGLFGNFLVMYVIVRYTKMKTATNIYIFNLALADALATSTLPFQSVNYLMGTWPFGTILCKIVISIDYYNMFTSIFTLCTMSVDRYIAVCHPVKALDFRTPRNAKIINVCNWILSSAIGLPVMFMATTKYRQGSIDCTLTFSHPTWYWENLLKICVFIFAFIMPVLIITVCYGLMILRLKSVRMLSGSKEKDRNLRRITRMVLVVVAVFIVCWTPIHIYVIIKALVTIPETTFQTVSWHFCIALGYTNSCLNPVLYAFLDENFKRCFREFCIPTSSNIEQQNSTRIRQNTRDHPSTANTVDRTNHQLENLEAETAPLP
# UniProt P41143, whole entry, looked up: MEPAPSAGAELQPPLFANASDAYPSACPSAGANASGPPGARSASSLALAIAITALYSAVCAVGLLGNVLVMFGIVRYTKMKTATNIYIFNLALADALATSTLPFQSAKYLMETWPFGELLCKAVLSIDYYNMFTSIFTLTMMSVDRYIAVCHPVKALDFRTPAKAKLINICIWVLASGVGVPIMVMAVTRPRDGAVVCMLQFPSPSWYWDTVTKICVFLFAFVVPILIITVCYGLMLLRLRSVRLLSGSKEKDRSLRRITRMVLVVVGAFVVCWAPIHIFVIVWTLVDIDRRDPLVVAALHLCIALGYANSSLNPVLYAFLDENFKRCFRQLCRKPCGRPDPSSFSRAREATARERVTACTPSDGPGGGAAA
# The entries are a selection whose mix differs from that of the whole data set. The source made the active and inactive calls.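 Rule for the calls: active = mean activation across replicates exceeds the hit threshold derived in the earlier primary screen (cut at about 18% in these data); inactive = the rest.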
# Molecular target: Mu-type opioid receptor (Homo sapiens) + Delta-type opioid receptor (Homo sapiens) (UniProt P35372+P41143)
# Assay: OPRM1-OPRD1 heterodimer beta-arrestin recruitment activators – cell-based, luminescence, counter-screen for MC4R biased agonist project (AID 602194);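 note: 100% = deltorphin B at 0.9 µM final and 0% = DMSO alone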
# Conditions: U2OS PathHunter beta-arrestin, beta-gal luminescence; at 9.2 µM; stronger effect = higher value; percent of deltorphin B response, DMSO zero
row,SMILES,activation
1,N=c1n(CCN2CCCCC2)c2ccccc2n1CC(=O)c1cccc([N+](=O)[O-])c1,inactive: 7.01%
2,CCC(C)c1ccc2oc(-c3ccc(NC(=O)Cn4cnc5c(=O)n(C)c(=O)n(C)c54)cc3)nc2c1 (configuration not stated),inactive: 9.2%
